In PubChem BioAssay AID2472 (National Center for Advancing Translational Sciences (NCATS), 2010) one finds activity change, negative = inhibition data, which are given here for 51 compounds.

Several values for one entry are separate records, joined by “and”; a condition that tells them apart may be missing. Equal values may be shown once. Only a part is listed here, and it is no random draw. Activity calls are given as the source filed them. Rule as the data show it: active = activity change below about -30%; inactive = the rest, inconclusive results apart.
% is scaled to controls: 0 for no effect and ±100 for the full control effect.

This experiment can be described thus: qHTS Assay for Inhibitors of Fructose-1,6-bisphosphate Aldolase from Giardia Lamblia: Coupling assay counterscreen. Particulars: coupling enzyme system counterscreen, AmpLite Red fluorescence; at 58.2 µM (top of the series). The source says:
MLPCN Grant: MH085699-01 Assay Provider: Osnat Herzberg, University of Maryland NCGC Assay Overview: The objective of this project is to obtain compounds that inhibit Giardia lamblia growth. G. lamblia is a human pathogen which afflicts impoverished nations; it is the most common cause of outbreaks of diarrhea in the United States. During the course of our study of potential drug targets in Giardia, we have identified the Class II (Zn2+ functions in electrophilic catalysis) fructose-1,6-bisphosphate aldolase (FBPA) as an excellent candidate for drug targeting. FBPA is a key glycolytic pathway enzyme, essential for G. lamblia survival. The human FBPA belongs to the Class I aldolases, which have a different substrate binding site structure and a radically different catalytic mechanism (employing a lysine-Schiff base intermediate). Therefore, affinity-based or mechanism-based inhibitors of the Giardia FBPA are expected not to interfere with the catalytic function of the human FBPA. A glyceraldehyde-3-phosphate dehydrogenase/triose phosphate isomerase/NAD/arsenate coupled assay was adapted to the 1536-well HTP format for use in the primary screen. This was done by coupling it to a diaphorase/resazurin/resorufin reaction that can be monitored by fluorescence (excitation, 544 nm; emission, 590 nm). Compounds identified in this screen will be further evaluated by coupling the […]/triose phosphate isomerase/NADH assay to a phenazine methosulfate/tetranitroblue tetrazolium color reaction. False positives due to the dehydrogenases and diaphorase inhibition will be eliminated, and selectivity assay will triage inhibitors of mammalian triose phosphate isomerase and the Class I FBPA. G. lamblia FBPA inhibitors identified by the in vitro analyses will be examined for growth inhibition of Giardia trophozoites, and for cytotoxicity in human cells. This assay specifically addresses whether activity observed in the primary screen (AID 2451) is related to inhibition of the coupling assay used, as opposed to inhibition of aldolase. Actives in this assay are considered inconclusive for activity against aldolase.
NCGC Assay Protocol: Step,Parameter,Value,Description 1,Coupling enzyme reagent,2 uL,glyceraldehyde-3-phosphate 2,Compound,23 nL,3.68 nM-57.5 uM final concentration 3,Time,10 min,RT Incubation 4,Substrate/detection Reagent,2 uL,Substrate + enzyme coupling system + AmpLite Red kit 5,Time,20 min,RT Incubation 6,Detector,525 nm/598 nm (Fluorescence),ViewLux Fluorescence Read (Read 1) Notes: 1,Medium-binding black solid-bottom Kalypsys plates. FRD or Kalypsys dispenser. 2,Compound Library (10 mM ,1:5 dilution). Pin-transferred for a [final] range of 3.68 nM-57.5 uM. 3,RT incubation 4,FRD or Kalypsys dispenser, 2 uL of reaction mixture. Bottle kept at 4C and covered in foil to protect from light. 5,RT incubation 6,ViewLux Protocol 1194; Excitation filter wheel A (525/20 Pol; BODIPY TMR FP), Emission filter wheel B (598/25 S; BODIPY TMR FP S). Keywords: Fructose-bisphosphate aldolase, FBPA , Giardia lamblia , Giardia, HTS, Inhibitors
As for `CC(=O)NC(SC(=S)N(CC(C)C)CC(C)C)C(Cl)(Cl)Cl` (stereo unspecified), the activity change, negative = inhibition is inactive: -0.687%.
In the case of `COC(=O)c1cc2c(s1)N=C(c1ccccc1)N(C)P2(=O)N1CCOCC1` (stereo unspecified) it was inactive: 1.92%; in that of `CCOC(=O)NC(Sc1ccccc1)C(Cl)(Cl)Cl` (stereo unspecified), inactive: 0.447%; in that of `Cc1ccc(NP(=O)(Oc2cccc(C)c2)Oc2cccc(C)c2)nc1`, inactive: 2.4%.
For `c1ccc(-c2nn[nH]n2)c(-c2nn[nH]n2)c1`, the activity change, negative = inhibition is inactive: 0.547%.
Under `O=C(NC1CCS(=O)(=O)C1)NP(=S)(Oc1ccccc1)Oc1ccccc1` (stereo unspecified) stands inactive: 0.55%; under `CCNC(=S)/N=C(\N)N[N+](=O)[O-]`, inactive: -0.432%.
In the case of `O=C(OC1CN2CCC1CC2)c1cccc(Cl)c1` (stereo unspecified) it was inactive: 1.13%.
Under `C(Cc1nn[nH]n1)Cc1nn[nH]n1` stands inactive: -13.5%; under `Nc1ccc([As](=O)(O)c2ccc([N+](=O)[O-])cc2)cc1`, inactive: 2.65%; under `O=[As](O)(c1ccccc1)c1ccc(O)cc1`, inactive: 0.302%.
As to `O=[N+]([O-])c1ncn(CCn2cnc([N+](=O)[O-])n2)n1`, the activity change, negative = inhibition is inactive: -9.6%.
In the case of `CC(=O)NC(SC(=S)N(C)C)C(Cl)(Cl)Cl` (stereo unspecified) it was inactive: 2.39%; in that of `O=[N+]([O-])c1ccc(O)c(/C=N/Nc2ccc([N+](=O)[O-])cc2[N+](=O)[O-])c1`, inactive: 5.45%.
For `C[C@H]1OP(=O)(Oc2ccccc2)[C@H](O)[C@H](O)[C@H]1N=[N+]=[N-]` (stereo partly specified), the activity change, negative = inhibition was inactive: 3.37%.
In the case of `O=P(Nc1nc2ccccc2s1)(c1ccccc1)c1ccccc1` it was inactive: 2.98%; in that of `CN(C)C1(CNC(=O)c2ccc(Cl)c(S(N)(=O)=O)c2)CCCCC1`, inactive: 3.2%; in that of `O=P(Nc1ccccn1)(c1ccc(Br)cc1)c1ccc(Br)cc1`, inactive: -0.641%.
Under `CCC(C)(OOC(C)(C)C)OOC(C)(C)C` stands inactive: -1.03%; under `c1nnnn1CCn1cnnn1`, inactive: -0.0702%; under `O=P(Nc1nccs1)(c1ccccc1)c1ccccc1`, inactive: -0.0177%.
In the case of `CC(C)C(=O)NC(Sc1ccccc1)C(Cl)(Cl)Cl` (stereo unspecified) it was inactive: 0.667%.
For `CC(C)/C=N\N=C(\N)N[N+](=O)[O-]`, the activity change, negative = inhibition was inactive: 4.75%.
In the case of `O=[As](O)(c1ccccc1Br)c1ccccc1Br` it was inactive: -0.48%; in that of `CC(C)(C)C(=O)NC(Sc1ncccn1)C(Cl)(Cl)Cl` (stereo unspecified), inactive: 2.39%; in that of `Clc1n[nH]nc1-c1nn[nH][15n]1`, inactive: -1.65%.
In the case of `CCOP(=O)(NC(=NC(C)c1ccccc1)NC(C)c1ccccc1)OCC` (stereo unspecified) it was inactive: 4.52%.
In the case of `CCC1=CC2Cc3nc4ccc(Cl)cc4c(N)c3C(C1)C2` (stereo unspecified) it was inactive: 3.6%.
In the case of `O=P1(Nc2ccccn2)COc2ccccc2OC1`, the activity change, negative = inhibition was inactive: 5.06%.
Under `CCOP(=O)(Nc1ccc(C)cn1)OCC` stands inactive: 2.81%.
In the case of `Nc1cccc([As](=O)(O)c2ccccc2)c1` it was inactive: 3.47%; in that of `O=[As](O)(c1cccs1)c1cccs1`, inactive: 0.0552%.
Under `Cc1ccc(OCC(=O)OC2CN3CCC2CC3)cc1` (stereo unspecified) stands inactive: 1.09%.
Consider `O=P1(Nc2ccc(Br)cn2)COc2ccccc2OC1`, for which the activity change, negative = inhibition is inactive: 1.4%.
Under `O=P1(Nc2ncccn2)COc2ccccc2OC1` stands inactive: -1.4%; under `CN(C)C1(CNC(=O)c2ccc(S(C)(=O)=O)cc2)CCCCC1`, inactive: 3.32%.
Under `O=C(/C=C/c1ccccc1)OC1CN2CCC1CC2` (stereo unspecified) stands inactive: 1.77%.
In the case of `Cc1ccc(C(=O)OC2CN3CCC2CC3)cc1` (stereo unspecified) it was inactive: 5.1%; in that of `CC1CCC(C(C)C)C(OP(=O)(Nc2ccccn2)c2ccccc2)C1` (stereo unspecified), inactive: 0.493%.
`Cc1nn(-c2ccccc2)c2c1P(=O)(N1CCOCC1)N(C)C(c1ccccc1)=N2` (stereo unspecified): the activity change, negative = inhibition is inactive: 1.88%.
In the case of `CCOP1(=S)c2c(C)nn(CCC#N)c2N=C(c2ccc(F)cc2)N1C` (stereo unspecified) it was inactive: 1.61%; in that of `CN(C(=O)Cc1ccccc1)[C@@H]1CC[C@]2(CCCO2)C[C@H]1N1CCCC1`, inactive: 6.77%.
Under `O=[N+]([O-])c1ccc2c(c1)nnn2O` stands inactive: 5.22%; under `O=[N+]([O-])CC(O)c1ccc([N+](=O)[O-])cc1` (stereo unspecified), inactive: 4.32%.
Under `NC(=O)Nc1ccc([As](=O)(O)O)cc1` stands inactive: -0.644% and inactive: 0.88%; under `O=C(O)COc1ccc([As](=O)(O)O)cc1[N+](=O)[O-]`, inactive: 2.18%.
Turning to `Nc1ccccc1[As](=O)(O)c1ccccc1`, the activity change, negative = inhibition is inactive: 2.13%.
Under `O=P(Nc1nccs1)(Oc1ccccc1)Oc1ccccc1` stands inactive: 6.05%.
In the case of `O=P(Nc1nccs1)(c1ccccc1)c1nc2ccccc2s1` (stereo unspecified) it was inactive: -0.651%; in that of `CCOP1(=S)c2c(C)nn(CCC#N)c2N=C(c2ccccc2F)N1C` (stereo unspecified), inactive: -0.361%.
As to `CS(=O)(=O)c1cc([N+](=O)[O-])c2no[n+]([O-])c2c1`, the activity change, negative = inhibition was active: -57.4%.
